# AlphaSeq binding of Ab-14 light chain variants to a spike HR2 peptide

Reference: Li et al. 2023, doi:10.1038/s41467-023-39022-2. File: FLAb, binding data.

Target: peptide PDVDLGDISGINAS, taken from heptad repeat 2 (HR2) of SARS-CoV-2 spike.

Parent scFv Ab-14: VH joined to VL by the linker GGGGSGGGGSGGGGS. Changes lie in the light chain CDRs alone.
VH: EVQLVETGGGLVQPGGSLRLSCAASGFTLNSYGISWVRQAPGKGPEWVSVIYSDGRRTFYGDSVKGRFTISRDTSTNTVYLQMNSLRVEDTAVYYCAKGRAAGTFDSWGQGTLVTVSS
VL: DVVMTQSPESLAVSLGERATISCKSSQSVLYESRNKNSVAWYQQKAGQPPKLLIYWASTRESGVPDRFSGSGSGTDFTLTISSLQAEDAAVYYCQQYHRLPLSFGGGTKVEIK

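The starting antibody came from a phage panning campaign against this peptide. This is the validation round: designs drawn from the data on random variants, tested in the same kind of assay. Their group label is 14L_En_Gen (En: ensemble of fine-tuned language models; Gen: genetic algorithm). AlphaSeq pools MATa yeast showing the antibodies with MATalpha yeast showing the peptide. The frequency of each diploid, read from paired DNA barcodes, reflects how well the two displayed proteins bind. Scores were corrected for input abundance and mapped to Kd with protein pairs of known affinity run in the same pool. There are six technical replicates.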

The parent's light chain CDRs are KSSQSVLYESRNKNSVA, WASTRES, QQYHRLPLS; each variant's own CDRs replace them letter for letter.
The read-out is the apparent dissociation constant on a log10 scale (nM): the lower, the stronger.
Where no diploid with the target was found in that replicate, the entry reads "n.d.": below detection, most likely a poor binder, though not proof of it.

CDR-L1,CDR-L2,CDR-L3,"replicates, log10 nM",empty controls
TLDMVARGLTRKEDSVA,DNSTRES,QQYDRLPLS,n.d. / n.d. / n.d. / 1.26 / 1.69 / 2.14,0 of 18
TIGGTLMFGSRNRSNVA,EVSERLN,QQYDRLPLI,n.d. / n.d. / n.d. / 1.49 / 4.22 / n.d.,2 of 18 (1.96)
TISQLYNMGQFAINSVA,QASIRNS,QQYDRLPLM,2.66 / 1.61 / 1.90 / 1.15 / 1.83 / 2.00,0 of 18
MIYGMDRELGRAANSIA,DNVTRYN,QQYNRLPLD,n.d. / n.d. / 1.82 / n.d. / n.d. / n.d.,0 of 18
IVSQLMMWGMHAKNSIA,EAVTRYN,QQYDRLPLI,n.d. / n.d. / n.d. / n.d. / n.d. / 4.02,0 of 18
MISQLYNMGTFAINSVA,QASIRNS,QQYDRLPLM,n.d. / n.d. / 3.73 / n.d. / 2.00 / 1.73,1 of 18 (1.87)
KLSMVTGHMSKAKNNVA,EMVTREE,QQYERLPLS,0.72 / 0.39 / 0.71 / 0.76 / 0.59 / 0.39,0 of 18
KLYEMMALTMANIRNVA,DNNTRED,QQYNRLPLS,1.57 / 1.55 / 1.63 / 2.60 / 2.22 / 2.22,0 of 18
TLYGLSMSMAKNKNNVA,EMTTREK,QQYDRLPLM,1.28 / 0.69 / 0.78 / 0.84 / 0.94 / 0.83,0 of 18
HMSMLTLMGQRHRNSVA,QMTTREN,QQYDRLPLA,1.75 / 1.99 / 3.09 / n.d. / 1.52 / 2.51,0 of 18
KLSMITGHMQVEKNNVA,EMETREN,QQYDRLPLS,1.17 / 0.94 / 0.44 / 0.81 / 0.78 / 1.16,0 of 18
QISGITGHMSMLKNNVA,EMVTREN,QQYDRLPLS,1.27 / 0.35 / 0.30 / 0.49 / 0.69 / 0.67,0 of 18
IIDSIMFHGNKRANSIA,QASERVN,QQYHHLPLT,1.14 / 1.60 / 1.95 / 1.39 / 1.08 / 1.33,1 of 18 (2.09)
KLSMVTGHQLMHKDNVA,EMVTREN,QQYNRLPLS,0.13 / 0.47 / 0.18 / -0.18 / 0.35 / 0.25,0 of 18
TLYGLSNSMSKNKNNVA,EMSTREA,QQYDRLPLV,0.51 / 0.36 / 0.17 / 0.13 / 0.38 / 0.31,2 of 18 (2.92)
KIGMTLNTLLHQKNNVA,DLVEREN,QQYFRLPLS,0.09 / 0.09 / 0.03 / -0.05 / -0.11 / 0.10,0 of 18
KLSMLMDLTQKHYNSVA,HVTTRSE,QQYNRLPFS,1.48 / 1.07 / 1.05 / 1.00 / 1.30 / 1.01,2 of 18 (2.51)
MMSQVTGYGQRQRNNVA,QTSTRED,QQYDRLPLI,0.41 / 0.65 / 0.41 / 0.34 / 0.21 / 0.87,0 of 18
MIYGAERELGRAANSIA,DNVTRYN,QQYERLPLS,n.d. / n.d. / 2.08 / n.d. / n.d. / n.d.,0 of 18
TISMHTSLFSQTINNVA,EVSTRET,QQYDRLPLI,n.d. / n.d. / n.d. / n.d. / 2.28 / n.d.,1 of 18 (2.54)
TISQVMNTLTRHGNNVA,DLQEREV,QQYFRLPLS,0.72 / 0.75 / 0.71 / 0.60 / 0.63 / 0.60,1 of 18 (3.19)
SLYEITQELSGKKHSVA,DNSTRGE,QQYFRLPLE,1.08 / 0.77 / 0.73 / 1.19 / 0.62 / 1.11,0 of 18
QIAGLLNFESTKTNNVA,QMETRVN,QQYDRLPLS,0.48 / 0.75 / 0.57 / 0.65 / 0.74 / 0.71,0 of 18
MVTQMAMTGMMSKRSVA,NAETREY,QQYHRLPLI,1.70 / 1.83 / 1.80 / 1.79 / 1.21 / 1.90,0 of 18
MISQIYNMGQFAINSVA,QASERSN,QQYDRLPLI,1.34 / 1.86 / 1.24 / 1.36 / 1.74 / 1.72,2 of 18 (2.05)
KLSMITGHMSVSKNNVA,EMETRAN,QQYDRLPLS,1.22 / 0.73 / 0.65 / 0.71 / 0.65 / 1.03,0 of 18
IVSQLMLWGLHAKNSIA,EAQTRVN,QQYDRLPLF,n.d. / 1.52 / n.d. / n.d. / n.d. / n.d.,0 of 18
HITMGMYVSGRHHSNIA,QAEERAK,QQYDRLPLI,0.96 / 0.73 / 0.84 / 0.53 / 0.98 / 0.95,1 of 18 (2.61)
MMSQVTGSGTRHRNNVA,QTSMREP,QQYDRLPLI,0.80 / 0.35 / 0.34 / 0.44 / 0.39 / 0.66,3 of 18 (3.15)
TISQMTSLFSQSINNVA,EVSMREP,QQYDRLPLA,1.32 / 0.92 / 0.75 / 0.90 / 0.84 / 0.82,2 of 18 (3.28)
MISQLYNMGSFAINSVA,QASYRNE,QQYDRLPLM,1.86 / 1.68 / 2.00 / 2.65 / 1.94 / 1.81,0 of 18
TISGVMQTQSHSKNNVA,EVSMRLS,QQYFRLPLE,0.37 / 1.31 / 0.57 / 0.99 / 0.75 / 1.43,0 of 18
MLSEMLHMLGTKKNSIA,DLVLRAN,QQYHRLPLS,n.d. / 1.37 / n.d. / 1.44 / 2.01 / 1.96,0 of 18
HIGGVLEGENVKGRSVA,HMNTRVD,QQYDRLPLS,0.76 / 0.73 / 0.64 / 0.55 / 0.95 / 0.54,0 of 18
QIYQAMHTLSQVKDNVA,DVNERGS,QQYFRLPLS,0.74 / 0.75 / 0.28 / 0.64 / 0.56 / 0.93,3 of 18 (3.07)
MLSEVLHMLGAKKNSIA,DLVLRAN,QQYHRLPLS,3.11 / n.d. / 1.99 / 2.06 / 1.30 / 2.49,0 of 18
MLGGNLMHEMMKKNNVA,HMTTRVE,QQYHRLPLI,1.51 / 1.41 / 1.72 / 1.22 / 1.69 / 2.07,2 of 18 (3.18)
KIGMTLNMMMHKKNNVA,DLVTREK,QQYHRLPLS,0.94 / 0.69 / 0.85 / 0.47 / 0.96 / 0.83,2 of 18 (2.47)
HMSMLTLQGMRHRNSVA,QMTTRVN,QQYDRLPLM,1.97 / 1.25 / 1.31 / 1.58 / 1.48 / 1.29,0 of 18
MISQLYNMGTFAINSVA,QASIRNA,QQYDRLPLI,0.99 / 1.00 / 1.29 / 1.08 / 1.93 / 1.08,1 of 18 (2.91)
IVSQLMLWGLHAKNSIA,EAEMRLN,QQYERLPLF,n.d. / n.d. / n.d. / n.d. / n.d. / n.d.,0 of 18
KITGTMRFEQKASNNIA,EVEQRSK,QQYYRLPLS,0.55 / 0.42 / -0.02 / 0.39 / -0.05 / 0.30,0 of 18
KLSMITGHMSMSKNNVA,EMVTREK,QQYNRLPLA,0.87 / 1.78 / 1.32 / 0.36 / 1.26 / 1.66,0 of 18
TISQLYNQATGMRNSVA,NNQTRTD,QQYFRLPLS,1.55 / 1.47 / 0.73 / 0.86 / 0.88 / 1.56,0 of 18
KIGMTLNQLMHEKNNVA,DLVTREN,QQYHRLPLS,0.27 / 0.17 / 0.10 / -0.02 / 0.05 / 0.35,0 of 18
MVTQMAMTGMTNKRSVA,NAETREA,QQYHRLPLI,0.64 / 0.37 / 0.78 / 0.13 / 0.70 / 0.20,1 of 18 (1.98)

Top 5 of the variants detected in all replicates, tightest first:

CDR-L1,CDR-L2,CDR-L3,"replicates, log10 nM",empty controls
KIGMTLNTLLHQKNNVA,DLVEREN,QQYFRLPLS,0.09 / 0.09 / 0.03 / -0.05 / -0.11 / 0.10,0 of 18
KIGMTLNQLMHEKNNVA,DLVTREN,QQYHRLPLS,0.27 / 0.17 / 0.10 / -0.02 / 0.05 / 0.35,0 of 18
KLSMVTGHQLMHKDNVA,EMVTREN,QQYNRLPLS,0.13 / 0.47 / 0.18 / -0.18 / 0.35 / 0.25,0 of 18
KITGTMRFEQKASNNIA,EVEQRSK,QQYYRLPLS,0.55 / 0.42 / -0.02 / 0.39 / -0.05 / 0.30,0 of 18
TLYGLSNSMSKNKNNVA,EMSTREA,QQYDRLPLV,0.51 / 0.36 / 0.17 / 0.13 / 0.38 / 0.31,2 of 18 (2.92)

Empty control strains, which show no peptide, gave a signal in 4% of pairings with all light chain designs; the median was 2.64 and 95% of these signals were weaker than 1.59. No background was subtracted. The control count says in how many pairings with the empty strains this scFv gave a signal, with their mean in brackets.
A sequence measured in both rounds can read differently, since the two assays cover different ranges.
The parent sequence was in this pool as ten entries: three were never detected, three once, and four in most replicates, with averages from 0.34 to 2.37.
The authors' rule: three or more of the six replicates give a measured affinity, fewer mean a poor binder.